This is an account of results in US20150309029.

Data set [1] deals with His-H-Ras (purified from E. coli C41).
In data set [2] the target is GST-H-Ras (Glutathione S-transferase-H-Ras).

B1: recombinant human active Gsk3β protein (protein)
chain: MSGRPRTTSFAESCKPVQQPSAFGSMKVSRDKDGSKVTTVVATPGQGPDRPQEVSYTDTKVIGNGSFGVVYQAKLCDSGELVAIKKVLQDKRFKNRELQIMRKLDHCNIVRLRYFFYSSGEKKDEVYLNLVLDYVPETVYRVARHYSRAKQTLPVIYVKLYMYQLFRSLAYIHSFGICHRDIKPQNLLLDPDTAVLKLCDFGSAKQLVRGEPNVSYICSRYYRAPELIFGATDYTSSIDVWSAGCVLAELLLGQPIFPGDSGVDQLVEIIKVLGTPTREQIREMNPNYTEFKFPQIKAHPWTKVFRPRTPPEAIALCSRLLEYTPTARLTPLEACAHSFFDELRDPNVKLPNGRDTPALFNFTTQELSSNPPLATILIPPHARIQAAASTPTNATAASDANTGDRGQTNNAASASASNST
Take B1: the “in vitro kinase assay, 32P autoradiography” value in data set [1] and in data set [2] was “H-Ras was strongly phosphorylated by Gsk3β” throughout.
